In ChEMBL document CHEMBL3822371, “Rapid Discovery and Structure-Activity Relationships of Pyrazolopyrimidines That Potently Suppress Breast Cancer Cell Growth via SRC Kinase Inhibition with Exceptional Selectivity over ABL Kinase” (J Med Chem, 2016):

How the values were obtained:
Plasma = experiment: Fraction unbound in rat plasma after 24 hrs by LC-MS/MS analysis; format: ADME, cell-free
[1] = Fraction unbound in human plasma after 24 hrs by LC-MS/MS analysis; format: ADME, cell-free

`COc1cc(-c2nn(CCN3CCC(N(C)C)CC3)c3ncnc(N)c23)ccc1NC(=O)OC(C)(C)C` showed a Fu (Plasma) of 9.4% and a Fu [1] of 19.1%.
